Experimental data as given in ChEMBL document CHEMBL1123047, “Quantitative evaluation of the beta 2-adrenoceptor affinity of phenoxypropanolamines and phenylethanolamines” (J Med Chem, 1985).

Chains of the proteins cited; added tags and fusions are not shown.
UniProt Q28044, whole entry: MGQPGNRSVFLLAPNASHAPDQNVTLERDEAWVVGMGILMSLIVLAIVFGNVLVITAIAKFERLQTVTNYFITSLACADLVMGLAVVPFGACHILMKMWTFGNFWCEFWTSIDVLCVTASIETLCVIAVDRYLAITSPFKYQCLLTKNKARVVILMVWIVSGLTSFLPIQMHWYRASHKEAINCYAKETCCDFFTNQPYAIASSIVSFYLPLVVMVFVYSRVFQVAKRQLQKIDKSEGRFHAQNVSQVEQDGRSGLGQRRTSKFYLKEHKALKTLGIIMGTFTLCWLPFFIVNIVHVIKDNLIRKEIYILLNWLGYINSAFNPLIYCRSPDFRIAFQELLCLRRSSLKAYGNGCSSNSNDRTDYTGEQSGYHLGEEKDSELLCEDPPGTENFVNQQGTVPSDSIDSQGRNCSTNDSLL

Columns and labels:
[1] = target: Beta-2 adrenergic receptor (Bos taurus, UniProt Q28044); details: read-out: Kd app
[2] = target: Beta-2 adrenergic receptor (Bos taurus) (UniProt Q28044)

## CC(C)(C)NCC(O)c1cc(Cl)c(N)c(Cl)c1 (configuration not stated) [CLENBUTEROL]
[1]
  Kd: 36 nM
[2]
  -Log KD: 7.74
